# According to ChEMBL document CHEMBL4680176, “Identification of DOT1L inhibitors by structure-based virtual screening adapted from a nucleoside-focused library” (Eur J Med Chem, 2020):
# What was measured:
# Homo sapiens [1] = organism: Homo sapiens; experiment: Selectivity index, ratio of IC50 for human PRMT3 to IC50 for recombinant human N-terminal GST-tagged DOT1L (1 to 420 residues) expressed in Escherichia coli BL21 (DE3)
# Homo sapiens [2] = organism: Homo sapiens; experiment: Selectivity index, ratio of IC50 for human DNMT1 to IC50 for recombinant human N-terminal GST-tagged DOT1L (1 to 420 residues) expressed in Escherichia coli BL21 (DE3)
# Homo sapiens [3] = organism: Homo sapiens; experiment: Selectivity index, ratio of IC50 for human PRMT5 to IC50 for recombinant human N-terminal GST-tagged DOT1L (1 to 420 residues) expressed in Escherichia coli BL21 (DE3)
# Homo sapiens [4] = organism: Homo sapiens; experiment: Selectivity index, ratio of IC50 for human PRMT8 to IC50 for recombinant human N-terminal GST-tagged DOT1L (1 to 420 residues) expressed in Escherichia coli BL21 (DE3)
smiles,measurement,setting,value
CC(C)(C)c1ccc(NC(=O)c2ncn(CC(=O)NCCn3ccc4c(N)ncnc43)n2)cc1,Ratio IC50,Homo sapiens [1],130
same,Ratio IC50,Homo sapiens [2],250
same,Ratio IC50,Homo sapiens [3],175
same,Ratio IC50,Homo sapiens [4],> 250
